Drawing on ChEMBL document CHEMBL4602705, “Discovery of N-Cyano-sulfoximineurea Derivatives as Potent and Orally Bioavailable NLRP3 Inflammasome Inhibitors” (ACS Med Chem Lett, 2020), this text covers IC50 for 1 compound.

The chains behind the UniProt entries cited, without tags or fusion partners.
UniProt Q96P20, whole entry, looked up: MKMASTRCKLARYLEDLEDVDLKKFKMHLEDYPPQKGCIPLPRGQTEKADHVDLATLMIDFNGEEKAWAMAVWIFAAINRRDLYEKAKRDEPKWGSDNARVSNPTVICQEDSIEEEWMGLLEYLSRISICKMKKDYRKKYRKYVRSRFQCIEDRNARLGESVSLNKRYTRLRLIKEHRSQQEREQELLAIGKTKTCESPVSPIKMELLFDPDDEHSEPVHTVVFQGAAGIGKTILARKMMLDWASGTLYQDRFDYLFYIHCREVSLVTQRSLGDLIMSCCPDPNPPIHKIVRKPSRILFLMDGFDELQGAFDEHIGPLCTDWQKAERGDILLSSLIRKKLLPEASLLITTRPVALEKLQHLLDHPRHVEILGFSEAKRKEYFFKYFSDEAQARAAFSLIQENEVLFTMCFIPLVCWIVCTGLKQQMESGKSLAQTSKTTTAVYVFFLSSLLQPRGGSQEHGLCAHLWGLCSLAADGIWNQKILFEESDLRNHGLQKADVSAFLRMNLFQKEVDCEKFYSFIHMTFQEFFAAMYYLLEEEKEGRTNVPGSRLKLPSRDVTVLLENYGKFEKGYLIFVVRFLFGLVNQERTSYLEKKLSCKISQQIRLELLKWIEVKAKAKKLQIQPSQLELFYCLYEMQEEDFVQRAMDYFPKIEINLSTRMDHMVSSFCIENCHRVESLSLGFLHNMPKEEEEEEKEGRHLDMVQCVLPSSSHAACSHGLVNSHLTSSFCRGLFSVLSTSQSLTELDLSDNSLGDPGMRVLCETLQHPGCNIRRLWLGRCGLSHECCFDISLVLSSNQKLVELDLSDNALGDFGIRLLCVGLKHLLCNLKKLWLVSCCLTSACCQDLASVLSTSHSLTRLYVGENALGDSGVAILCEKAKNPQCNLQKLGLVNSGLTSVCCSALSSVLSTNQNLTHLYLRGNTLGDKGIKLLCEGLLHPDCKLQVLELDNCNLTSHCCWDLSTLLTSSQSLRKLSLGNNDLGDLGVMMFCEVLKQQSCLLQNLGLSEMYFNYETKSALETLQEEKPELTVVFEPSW

Structures are written as SMILES.

This experiment concerns the target NACHT, LRR and PYD domains-containing protein 3 (Homo sapiens, UniProt Q96P20). To be noted: thp-1.

For the compound `O=C(Nc1c2c(cc3c1CCC3)CCC2)NP(=O)(O)c1ccccc1`, the IC50 was over 1000 nM.

The term IC50 denotes the concentration that gives 50% inhibition. A lower IC50 goes with greater potency.
